The assay has as its target 5-hydroxytryptamine receptor 2A (Rattus norvegicus) (UniProt P14842).

For the compound `CC1CCN(CCCC(=O)c2ccc(F)cc2)CC1` [CAS_3575-80-2], the affinity corresponds to a Ki of 280 nM.

Values taken from BindingDB's records for doi:10.1016/S0893-133X(96)00187-X (University of Toronto, 1997).
